Columns and labels:
BCLxL-mCherry (human) = BCLxL-mCherry (human) (UniProt Q07817); details: natural protein; chains chain; remark: other sources report otherwise
BCL2-mCherry (human) = BCL2-mCherry (human) (UniProt P10415); details: natural protein; chains chain; remark: other sources report otherwise

Sequences of proteins named here, by UniProt entry; tags and fusion partners are left off.
UniProt Q07817, whole entry: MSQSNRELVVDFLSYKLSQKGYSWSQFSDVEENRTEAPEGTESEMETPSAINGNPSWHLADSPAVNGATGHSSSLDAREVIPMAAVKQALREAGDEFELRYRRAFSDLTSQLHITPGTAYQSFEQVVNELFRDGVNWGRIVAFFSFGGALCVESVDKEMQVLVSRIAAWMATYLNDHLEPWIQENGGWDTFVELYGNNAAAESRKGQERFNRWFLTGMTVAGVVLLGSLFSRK
UniProt P10415, whole entry: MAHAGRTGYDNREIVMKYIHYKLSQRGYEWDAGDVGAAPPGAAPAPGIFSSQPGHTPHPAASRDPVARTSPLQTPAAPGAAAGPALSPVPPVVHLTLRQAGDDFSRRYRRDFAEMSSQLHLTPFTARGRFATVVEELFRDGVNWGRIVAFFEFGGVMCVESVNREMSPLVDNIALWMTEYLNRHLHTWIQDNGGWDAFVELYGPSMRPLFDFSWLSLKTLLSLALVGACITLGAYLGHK
UniProt O43521, whole entry: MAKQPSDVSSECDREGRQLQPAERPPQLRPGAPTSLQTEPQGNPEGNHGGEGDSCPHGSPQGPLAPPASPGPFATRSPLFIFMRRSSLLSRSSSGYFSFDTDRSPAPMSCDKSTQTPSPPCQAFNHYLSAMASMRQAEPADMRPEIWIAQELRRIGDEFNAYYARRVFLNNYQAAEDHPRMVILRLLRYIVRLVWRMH

- Kd (BCLxL-mCherry (human)): 71.1 nM
- Kd (BCL2-mCherry (human)): 134 nM
Substance: BIMEL-eGFP (from UniProt O43521-1 1-198)

Source: publication PMC11584402
